Experimental data: patent US20230052528A1 (priority 2019, published 2023)

Protein sequences, listed by entry. Tags and fused reporters are not part of them. Residues count along the entry.
UniProt Q9H6P5, 1-233 limits assumed: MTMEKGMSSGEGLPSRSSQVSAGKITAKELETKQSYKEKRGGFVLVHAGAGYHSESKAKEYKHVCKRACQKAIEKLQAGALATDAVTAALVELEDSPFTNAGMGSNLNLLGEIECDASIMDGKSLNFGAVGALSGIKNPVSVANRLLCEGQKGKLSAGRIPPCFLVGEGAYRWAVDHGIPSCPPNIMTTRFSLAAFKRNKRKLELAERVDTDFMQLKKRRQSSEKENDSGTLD
UniProt Q9H6P5, 234-420 limits assumed: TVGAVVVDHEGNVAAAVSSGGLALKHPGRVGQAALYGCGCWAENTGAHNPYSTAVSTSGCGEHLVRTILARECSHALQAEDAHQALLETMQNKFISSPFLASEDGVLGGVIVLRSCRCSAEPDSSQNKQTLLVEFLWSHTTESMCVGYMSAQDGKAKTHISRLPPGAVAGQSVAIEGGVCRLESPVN

Molecular target: Taspase-1 in transfected HEK-293T cells (Homo sapiens, UniProt Q9H6P5)
Test: Dual-fluorescent proteolytic reporter (DFPR) cell assay
Conditions: read-out: EC50 in DFPR assay, text b1060

For `C=CS(=O)(=O)N1CCN(Cc2ccc(OC(F)(F)F)cc2)CC1` [SMDC967, 1-(ethenesulfonyl)-4-{[4-(trifluoromethoxy)phenyl]methyl}piperazine], which EC50 is on record?
Its EC50 is 26.5 µM.
